Legend:
human taste panel = assay: Human taste panel magnitude estimation of sweetness intensity and pleasantness; details: for Sweetness relative to sucrose, molar basis: vs 0.27 molar sucrose
Excerpt: Solutions were presented to the subjects in a randomized fashion and were sampled in duplicate. After tasting, each solution was expectorated, and the mouth was washed with distilled water.

male Swiss-Webster mice = details: mouse, in vivo, po
Procedure: Compounds were suspended in a minimum volume of 1% sodium carboxymethylcellulose, and were administered by oral intubation at the doses indicated in Table II.
^a Male SwissWebster mice (9 or 10 animals per dose).
^d Mortality = number of mice dying within 14 days/number of starting
^e Mortality = number of mice dying within 24 hours/number of startin

S. mutans = assay: Cariogenicity: acid production by S. mutans from sweetener; assay type: cell-based
Procedure: In a first test, the ability of microbes to utilize this sweetener source as a nutrient and convert it to acidic by-products was determined.

Compound | Sweetness relative to sucrose, molar basis (human taste panel; natural hernandulcin) | Sweetness relative to sucrose, molar basis (human taste panel; natural hernandulcin, listed as hernandulcin) | Sweetness relative to sucrose, weight basis (human taste panel; natural hernandulcin, weight basis, vs 0.27 M sucrose) | Estimated LD50 (male Swiss-Webster mice) [mg/kg] | Mortality at 1.0 g/kg (male Swiss-Webster mice) | Mortality at 2.0 g/kg (14 days) (male Swiss-Webster mice) | Sweetness intensity relative to the isolated natural product (human taste panel; synthetic racemic mixture vs natural hernandulcin) | Rate of acid production relative to sucrose, weight basis (S. mutans)
CC(C)=CCC[C@@](C)(O)[C@H]1CCC(C)=CC1=O (relative stereo) [Hernandulcin, 6-(1',5'-dimethyl-1'-hydroxyhex-4'-en-1'-yl)-3-methyl-2-cyclohexen-1-one] | ~1,000 times | about 1,000 times | about 1,500 times | > 2000 | 0/10 | 0/10 |  | 
CC(C)=CCC[C@@](C)(O)[C@H]1CCC(C)=CC1=O (relative stereo) [synthetic hernandulcin, 6-(1',5'-dimethyl-1'-hydroxyhex-4'-en-1'-yl)-3-methyl-2-cyclohexen-1-one] |  |  |  |  |  |  | about one-half | one hundred-fold less than that attained from sucrose

Reference: patent US4808409A, “Low cariogenic sweetening agents” (Board of Trustees, University of Illinois, priority 1984, dated 1989)
